## OPERA 2.9 data: melting point values

From the experimental data distributed with OPERA 2.9.

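OPERA's authors assembled the values from existing databases and did not measure them anew. A listed value is a point estimate from one report or more. Method, purity and exact conditions of the single measurements are not given. A value may pool stereoisomers or salt forms, and the file does not say which form was measured. Some entries may be limits or estimates that an upstream database listed as plain numbers.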

Melting points are in °C. "via" names the databases from which the curators took the value.

CC(C)C(=O)N1CCC(C(=O)O)CC1 has melting point 103 °C (via OCHEM). Listed for COC(=O)c1ccc(N)s1: melting point 116 °C (via OCHEM). Listed for N#Cc1ccc(N2CCOCC2)nc1: melting point 124 °C (via OCHEM). O=C(O)c1ccc(S(=O)(=O)N2CCCCCC2)cc1 is reported with melting point 236 °C (via OCHEM).

NC(=O)CCNC(=O)OCc1ccccc1 is reported with melting point 165 °C (via OCHEM). Cc1[nH]c(=S)[nH]c(=O)c1CCO has melting point 264 °C (via OCHEM). Nc1nnc(-c2ccc(F)cc2)o1 is reported with melting point 247 °C (via OCHEM). For O=C1NC(=O)C2(CCCC2)N1 the data give melting point 141 °C (via OCHEM).

O=C(O)c1ccc(-n2cc(Br)cn2)cc1 has melting point 274 °C (via OCHEM). COc1ccc(Cl)cc1NC(=O)CCl has melting point 102 °C (via OCHEM). CCOC(=O)c1ccc(N=CN(C)c2ccccc2)cc1 has melting point 27 °C (via eChemPortal). For CC(C)(C)N(NC(=O)c1ccccc1)C(=O)c1ccccc1Br the data give melting point 196 °C (via OCHEM).

Listed for Cn1c(COc2ccc(Cl)cc2)n[nH]c1=S: melting point 119 °C (via OCHEM). CCOC(=O)c1sc2nc(CCl)[nH]c(=O)c2c1C is reported with melting point 191 °C (via OCHEM). COC(=O)c1c(-c2ccccc2Cl)csc1N is reported with melting point 94 °C (via OCHEM). O=C(O)CCOc1ccccc1Br is reported with melting point 112 °C (via OCHEM).

Listed for CCN(CC)S(=O)(=O)c1cccc(N)c1: melting point 85 °C (via OCHEM). Nc1cccc(-c2ccn[nH]2)c1 is reported with melting point 138 °C (via OCHEM). O=C(O)C1CC(=O)N(c2cccc3ccccc23)C1 (stereo not drawn) has melting point 208 °C (via OCHEM). CC(C)CCOC(=O)c1ccccc1 has melting point -13.54 °C (via eChemPortal).

For CC1=C(/C=C/C(C)=C/C=C/C(C)=C/C=C/C=C(C)/C=C/C=C(C)/C=C/C=C(C)/C=C/C=C(\C)C(=O)O)C(C)(C)CCC1 the data give melting point 211 °C (via OCHEM). CC(C)(C)OC(=O)Nc1ccc(C(F)(F)F)cc1N has melting point 141 °C (via OCHEM). For CCCCCCCCCCCCCC(=O)OCCCCCCCCCCCC the data give melting point 38.5 °C (via eChemPortal). For CNS(=O)(=O)c1cc(C(=O)O)ccc1Cl the data give melting point 227 °C (via OCHEM).

O=C(O)c1cccnc1N1CCCCC1 has melting point 95 °C (via OCHEM). The entry for NC(=S)c1ccc(C(=O)O)cc1 lists melting point 265 °C (via OCHEM). CCN(CC)S(=O)(=O)c1cccc(C(=O)NN)c1 is reported with melting point 134 °C (via OCHEM). For CNCC(C)C1CCCCC1.Cl (stereo not drawn) the data give melting point 139 °C (via OCHEM).

Listed for O=[N+]([O-])c1cc(S(=O)(=O)N2CCCCC2)ccc1Cl: melting point 62 °C (via OCHEM). CC[C@]12CC[C@@H]3c4ccc(OC)cc4CC[C@H]3[C@@H]1CC[C@@H]2OC(C)=O is reported with melting point 116 °C (via eChemPortal). Listed for Nn1cnnc1-c1ccccc1: melting point 116 °C (via OCHEM). For CCOc1ccc(Nc2ncccc2C(=O)O)cc1 the data give melting point 190 °C (via OCHEM).

C=C(C)C(=O)OC1C2CCC(C2)C1CC(O)(C(F)(F)F)C(F)(F)F (stereo not drawn) is reported with melting point 47.5 °C (via ChemicalBook). COc1ccc(C(=O)Nc2ccccc2C(=O)O)cc1 has melting point 185 °C (via OCHEM). For O=C(O)COc1ccc(Oc2ccccc2)cc1 the data give melting point 128 °C (via OCHEM). Cc1cc2nc(N)sc2cc1C is reported with melting point 186.9 °C (via PubChem).

O=C(O)COc1ccc2c(c1)CCC2 is reported with melting point 155 °C (via OCHEM). Listed for C[C@]12CC(=O)[C@H]3[C@@H](CCC4=CC(=O)CC[C@@]43C)[C@@H]1CC[C@@H]2C(=O)CO: melting point 184 °C (via OCHEM). For Cc1cccc(N2CC(C(=O)O)CC2=O)c1C (stereo not drawn) the data give melting point 212 °C (via OCHEM). O=C(O)CSc1ccccc1F has melting point 81 °C (via OCHEM).

The entry for CC12CCCC3(C1)C(OC=O)CC(C)(C)C3CC2 (stereo not drawn) lists melting point -34.16 °C (via eChemPortal). For CC(Cl)C(=O)Nc1cccc2ccccc12 (stereo not drawn) the data give melting point 147 °C (via OCHEM). Listed for CC(C)C(N)=S: melting point 43 °C (via OCHEM). The entry for CC(=O)O[C@H](CC(=O)[O-])C[N+](C)(C)C lists melting point 145 °C (via PubChem).